Results on 1 molecule are retold here after patent US7071194B2, “Method for improving respiratory function and inhibiting muscular degeneration” (priority 2000, dated 2006).

The assay deals with T8 SCI rats. Briefly: Respiratory function by head-out plethysmograph in conscious rats after T8 contusion SCI. Format: in vivo, rat. The following applies: 8-OH-DPAT 250 μg/kg i.p. On the procedure:
Female Sprague-Dawley rats (250–280 g and 360–390 g; Taconic, Germantown, N.Y.) were anesthetized with 4% chloral hydrate (360 mg/kg, i.p.). An incomplete spinal courd contusion injury was produced at T8 with a weight drop device (10 g×2.5 cm) as previously described (Wrathall et al., 1985). After SCI, manual expression of bladders was performed twice daily until a reflex bladder was established. Animal care also included housing the rats in pairs to reduce isolation-induced stress, maintaining ambient temperature at 22–25° C., and using highly absorbent bedding. No prophylactic antibiotics were given.
Experiments were conducted in unanesthetized, awake, spontaneously breathing rats at 24 hours prior to SCI, at 24 hours p.i. and weekly afterwards at 1,2,3, and 4 weeks p.i. (1) Acclimatization of the Animals. […] Animals were placed in the body cylinder of the plethysmograph (FIG. 1a) for 60 minutes per day for at least 5 days. […] (2) Non-Invasive Measurements of Respiratory Rate, Tidal Volume and Minute Ventilation. Non-invasive measurements of respiratory function in conscious rats were performed with a restrained head-out plethysmograph specially designed for rodents (BUXCO Electronics, Inc., Sharon, Conn.) (FIG. 1a). The plethymograph apparatus has a neck seal that prevents leakage of air from between the animal's neck and the plethymograph opening. Displacement of the thoracic wall produced by the animal's respiratory movements causes changes in the cylinder pressure, which results in air flowing across a pneumotachograph located on the wall of the cylinder. The pressure drop across the pneumotachograph is measured with a pressure transducer and is proportional to the flow. This signal is amplified and integrated into volume. […]
Baseline respiratory function was measured under room air ventilation and after the animal was stabilized inside a boy cylinder (FIGS. 1a and b) for 30 minutes at each time point prior to SCI and after injury. […]

For the molecule `CCCN(CCC)C1CCc2cccc(O)c2C1` (stereo not drawn) [8-OH-DPAT, 8-hydroxy-2-(di-n-propylamino)tetralin], for the setting “24 hours and 7 days after SCI”, the “impaired ventilatory response to 7% CO2” value was “normalized”. The “baseline Ve at 4 minutes post drug injection (FIG. 3)” value (24 hours p.i., n=3) was “significantly improved”. Besides, for the setting “24 hours p.i., time-course study”, the “ventilatory response to 7% CO2 at 5 hours after drug injection vs before treatment” value is “slightly and not significantly higher”.
